We go through one molecule from US20080207655A1, “Diaminopyrimidines as P2X3 and P2X2/3 modulators” (Roche Palo Alto LLC, priority 2007, published 2008).

This experiment deals with T1, rat P2X3 receptor (Rattus norvegicus, UniProt P49654).
T1 construct: expressed in transfected cells; host or cells: CHO-K1
T1 sequence (P49654 1-397): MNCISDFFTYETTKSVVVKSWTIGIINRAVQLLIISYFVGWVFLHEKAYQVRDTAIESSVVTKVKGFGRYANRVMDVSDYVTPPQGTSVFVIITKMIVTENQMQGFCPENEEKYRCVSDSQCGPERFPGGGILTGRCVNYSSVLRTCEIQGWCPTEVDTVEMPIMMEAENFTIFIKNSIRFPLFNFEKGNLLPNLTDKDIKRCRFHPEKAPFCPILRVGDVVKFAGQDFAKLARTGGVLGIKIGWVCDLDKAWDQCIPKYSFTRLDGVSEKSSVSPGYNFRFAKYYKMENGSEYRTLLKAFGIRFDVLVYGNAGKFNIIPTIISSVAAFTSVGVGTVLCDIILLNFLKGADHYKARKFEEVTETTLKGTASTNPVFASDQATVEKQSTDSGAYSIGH
Briefly: P2X3 FLIPR (Fluorometric Imaging Plate Reader) assay, CHO-K1 cells, α,β-meATP-evoked calcium fluorescence. It counts as cell-based. The conditions noted are these: agonist α,β-meATP 1 μM, read-out: pIC50 for the P2X3 receptor (converted). Here is the method:
CHO-K1 cells were transfected with cloned rat P2X3 or human P2X2/3 receptor subunits and passaged in flasks. 18-24 hours before the FLIPR experiment, cells were released from their flasks, centrifuged, and resuspended in nutrient medium at 2.5×10^5 cells/ml. The cells were aliquoted into black-walled 96-well plates at a density of 50,000 cells/well and incubated overnight in 5% CO2 at 37° C. On the day of the experiment, cells were washed in FLIPR buffer (calcium- and magnesium-free Hank's balanced salt solution, 10 mM HEPES, 2 mM CaCl2, 2.5 mM probenecid; FB). Each well received 100 μl FB and 100 μl of the fluorescent dye Fluo-3 AM [2 μM final conc.]. […]
Test compounds (dissolved in DMSO at 10 mM and serially diluted with FB) or vehicle were added to each well (25 μl of a 4× solution) and allowed to equilibrate for 20 minutes at room temperature. […] Fluorescence was measured for an additional 2 minutes at 1 second intervals after agonist addition. A final addition of ionomycin (5 μM, final concentration) was made to each well of the FLIPR test plate to establish cell viability and maximum fluorescence of dye-bound cytosolic calcium. Peak fluorescence in response to the addition of α,β-meATP (in the absence and presence of test compounds) was measured and inhibition curves generated using nonlinear regression. […]

As to `COc1cc(C(C)C)c(Oc2cnc(NC(CO)CO)nc2N)cc1I` [1a, 2-[4-Amino-5-(5-iodo-2-isopropyl-4-methoxy-phenoxy)-pyrimidin-2-ylamino]-propane-1,3-diol], the IC50 is 2.95 nM.
